{"source": "patent US20120277180A1", "about": "“Cofactors and Methods for Use for Individuals” (VITAPATH GENETICS, INC, priority 2009, published 2012)", "origin": "cited, not measured here", "conditions": "upper level of intake considered safe for adults; cited from earlier work", "data": [{"substance": "Vitamin E", "values": [{"measurement": "UL (Upper Limit)", "result": 1000, "unit": "mg"}]}]}
